Laboratory results published in patent US9938240B2, “Fluorinated derivatives of 3-hydroxypyridin-4-ones” (Apotex Technologies Inc., priority 2009, dated 2018).

Assay: Cyclic voltammetry of iron complexes
Type: physicochemical
Conditions: 0.1M aqueous NaCl

For Potassium ferricyanide (III), the “E1/2 vs. Ag/AgCl” value (pH 7.4) was “+20 mV”, the “E1/2 vs. NHE” value (pH 7.4) was “+240 mV” and the ΔE (pH 7.4) was 85 mV. For the same substance, the Eox (pH 7.4, vs. Ag/AgCl) was 282 mV and the Ered (pH 7.4, vs. Ag/AgCl) was 197 mV.
